Reference: patent US20240158392A1 (Janssen Biotech, Inc., priority 2021, published 2024)

The chains behind the UniProt entries cited, without tags or fusion partners.
UniProt Q9H0K1, whole entry, species assumed: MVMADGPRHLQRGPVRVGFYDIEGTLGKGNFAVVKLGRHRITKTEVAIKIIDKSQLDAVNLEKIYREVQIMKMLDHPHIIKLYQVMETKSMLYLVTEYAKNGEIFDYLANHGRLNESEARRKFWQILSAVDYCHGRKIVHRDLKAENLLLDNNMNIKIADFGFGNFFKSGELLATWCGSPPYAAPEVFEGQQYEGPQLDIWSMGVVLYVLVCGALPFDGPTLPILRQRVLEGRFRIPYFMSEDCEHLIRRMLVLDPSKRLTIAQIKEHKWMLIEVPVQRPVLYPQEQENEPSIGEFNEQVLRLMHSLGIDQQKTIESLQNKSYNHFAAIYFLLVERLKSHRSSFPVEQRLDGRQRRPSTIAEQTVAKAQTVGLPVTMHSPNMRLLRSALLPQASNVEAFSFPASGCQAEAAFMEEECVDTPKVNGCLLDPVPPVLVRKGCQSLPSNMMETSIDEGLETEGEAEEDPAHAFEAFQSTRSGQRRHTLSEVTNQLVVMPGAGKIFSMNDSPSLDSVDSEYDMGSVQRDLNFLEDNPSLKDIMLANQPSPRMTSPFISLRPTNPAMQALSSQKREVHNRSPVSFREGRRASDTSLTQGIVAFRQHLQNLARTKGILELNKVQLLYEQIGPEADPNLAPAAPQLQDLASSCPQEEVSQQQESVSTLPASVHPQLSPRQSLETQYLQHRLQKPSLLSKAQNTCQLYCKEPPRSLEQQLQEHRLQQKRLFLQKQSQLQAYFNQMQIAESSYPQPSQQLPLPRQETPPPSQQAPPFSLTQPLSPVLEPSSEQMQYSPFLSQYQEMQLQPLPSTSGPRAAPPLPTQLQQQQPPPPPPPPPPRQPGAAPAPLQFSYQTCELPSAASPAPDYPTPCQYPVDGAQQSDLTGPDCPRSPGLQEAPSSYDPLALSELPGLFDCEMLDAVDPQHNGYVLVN

How the values were obtained:
SIK2 [1] = biological target: T1, SIK2 (Homo sapiens, UniProt Q9H0K1); assay: SIK2 Enzymatic Assay Version 1 (ADP Glo); format: biochemical; settings: enzyme 0.6 nM, 160 μM ATP and 140 μM HDAC5tide (each 2× final concentration); 30 minutes pre-incubation, 4 hours; ADPGlo luminescence; read-out: SIK2 ADP Glo IC50 (μM) (Test Example 1)
Description: All steps were performed at room temperature. Compounds were pre-plated onto an assay plate using an Echo acoustic dispenser (Labcyte, E550 or E555) at 20 nL per well. Enzyme prepared in Assay Buffer at 0.6 nM (2× final concentration) was added at 2 μL per well using the Multidrop Combi (Thermo Fisher—used for all additions in this assay) to the assay plate, spun for 1 min at 800-850 rpm (Allegra 6KR Beckman Coulter centrifuge), and incubated with compound for 30 minutes.
One column of wells was dedicated to a no-peptide negative control (containing only ATP). ADPGlo Reagent (prepared and aliquoted as per manufacturer instructions) was then added at 2 μL per well, spun and incubated for 40 min. ADPGlo Detection (prepared and aliquoted as per manufacturer instructions) was added at 2 μL per well to the assay plate, which was spun and incubated for at least 30 min. The plate was then read on the Pherastar (BMG Labtech) using a luminescence read. Gain was set by the 0.1 mM concentration of ADP wells in the ADP/ATP standard curve plate generated as per manufacturer instructions.

SIK2 [2] = biological target: T1, SIK2; assay: SIK2 Enzymatic Assay High Version 2 (High ATP); format: biochemical
Description: All steps were performed at room temperature. Compounds were pre-plated onto an assay plate using an Echo acoustic dispenser (Labcyte, E550 or E555) at 80 nL per well. Enzyme prepared in assay buffer at 6 nM (2× final concentration) was added at 4 μL per well using the Multidrop Combi (Thermo Fisher—used for all additions in this assay) to the assay plate, spun for 1 min at 1000 rpm (Allegra 6KR Beckman Coulter centrifuge), and incubated with compound for 30 minutes. Assay buffer containing 6 mM ATP and 400 μM HDAC5tide (2× of final concentration for each substrate) was added at 4 μL per well to the assay plate and then spun as above and incubated for 2 hours. […] ADP-Glo Max Reagent (prepared and aliquoted as per manufacturer instructions) was then added at 8 μL per well, spun and incubated for 2 hours. ADP-Glo Max Detection (prepared and aliquoted as per manufacturer instructions) was added at 8 μL per well to the assay plate, which was spun and incubated for 1 hour. The plate is then read on the Pherastar (BMG Labtech) using a luminescence read. Gain is set between 2200-2500.

Work on `Cc1cc(-c2ccn3nc(Nc4cc(C)nc(C)n4)cc3c2)c(OC[C@@H]2CN(C)C(=O)N2C)cn1` [Example 562, (4S)-4-[[4-[2-[(2,6-dimethylpyrimidin-4-yl)amino]pyrazolo[1,5-a]pyridin-5-yl]-6-methyl-3-pyridyl]oxymethyl]-1,3-dimethyl-imidazolidin-2-one] yielded an IC50 (SIK2 [1]) of 0.000438 µM and an IC50 (SIK2 [2]) of 12 nM.
Compound `CC#Cc1cc(-c2ccn3nc(Nc4cc(C)nc(C)n4)cc3c2)c(O[C@@H]2[C@@H]3CO[C@H]2CN3)cn1` [Example 440, N-(2,6-dimethylpyrimidin-4-yl)-5-[5-[[(1S,4S,7R)-2-oxa-5-azabicyclo[2.2.1]heptan-7-yl]oxy]-2-prop-1-ynyl-4-pyridyl]pyrazolo[1,5-a]pyridin-2-amine] has an IC50 (SIK2 [1]) of 0.000435 µM and an IC50 (SIK2 [2]) of 6.71 nM.
